{"source": "patent US20100286233A1", "about": "“PERIPHERAL AND NEURAL INFLAMMATORY CROSSTALK” (University of Rochester, priority 2006, published 2010)", "molecules": {"B1": {"name": "BMP-2: BMP-2 added to C2C12 culture medium at 300 ng/mL (protein, UniProt P12643 283-396, looked up)", "Bone morphogenetic protein 2": "QAKHKQRKRLKSSCKRHPLYVDFSDVGWNDWIVAPPGYHAFYCHGECPFPLADHLNSTNHAIVQTLVNSVNSKIPKACCVPTELSAISMLYLDENEKVVLKNYQDMVVEGCGCR"}}, "system": "C2C12 cell line", "test": "C2C12 conversion to osteoblastic phenotype, alkaline phosphatase histochemistry", "assay_type": "cell-based", "conditions": "BMP-2 300 ng/mL over 4 days", "experimental": "In vitro studies: The C2C12 cell line, an in vitro model of chondrocyte differentiation and maturation, was obtained from ATCC and cultured in DMEM plus 10% normal bovine serum for 4 days as previously described (Katagiri, T., et al. 1994). In addition, cells were treated with BMP-2 (300 ng/mL) or alternatively with BMP-2 plus PGE2 (10^−8M) or recombinant IL-1β (10 ng/mL) or butaprost (10^−8M) in the culture medium. At the end of the experiment, cells were fixed with 10% formalin. Alkaline phosphatase expression was evaluated using the BCIP/NBT histochemistry method (Vector Labs, Burlingame Calif.). Positively-stained cells were counted in 10 random 20× fields using an inverted Olympus CK41 microscope.", "data": [{"molecule": "B1", "values": [{"measurement": "cells in culture expressing alkaline phosphatase", "value": 10, "unit": "%"}]}]}
